Assay results as given in patent US20240002463A1, “CHEMOGENETIC RECEPTORS AND METHODS OF MAKING AND USING” (Howard Hughes Medical Institute, priority 2022, published 2024).

Chains of the proteins cited; added tags and fusions are not shown. A line that says so, or that is headed by a name, gives the form on record, which may keep a tag or linker.
UniProt P36544, with tags, fused parts or gaps L141G/G175K/Y210F/Y217F/T225I/M226I: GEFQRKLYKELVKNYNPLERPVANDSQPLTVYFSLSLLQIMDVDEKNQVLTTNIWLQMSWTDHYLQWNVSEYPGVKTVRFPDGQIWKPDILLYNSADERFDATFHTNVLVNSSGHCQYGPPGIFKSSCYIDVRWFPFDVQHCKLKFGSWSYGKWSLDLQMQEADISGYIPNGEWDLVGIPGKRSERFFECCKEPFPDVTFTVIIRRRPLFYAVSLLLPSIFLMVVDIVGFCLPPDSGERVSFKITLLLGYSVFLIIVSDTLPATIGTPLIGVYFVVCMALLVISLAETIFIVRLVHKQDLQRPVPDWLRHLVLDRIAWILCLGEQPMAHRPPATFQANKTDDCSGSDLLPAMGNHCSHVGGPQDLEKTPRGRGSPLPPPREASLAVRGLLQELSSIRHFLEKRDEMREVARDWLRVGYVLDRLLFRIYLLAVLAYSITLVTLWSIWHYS

Molecular target: coca-5HT3 (Homo sapiens, UniProt P36544, G175K/L141G/M226I/T225I/Y210F/Y217F)
Experiment: binding constants by displacement of [3H]-ASEM or radiolabeled drug
Details: ligand for coca-5HT3

O=S1(=O)c2cc(N3CCN4CCC3CC4)ccc2-c2cccc(F)c21 [[^18F]-ASEM]
Ki: 9.3 nM
